Test results taken from PubChem BioAssay AID489006 (Sanford-Burnham Center for Chemical Genomics, 2010).

System: Jurkat NF-kB reporter, luminescence
Test: NF-kB reporter inhibition in Jurkat cells, dose response, selectivity assay for B-cell receptor NF-kB inhibitor project, cell-based, luminescence (AID 489006)

IC50: 13.4 µM
SMILES: CNC(=O)c1cc(Oc2ccc(NC(=O)Nc3ccc(Cl)c(C(F)(F)F)c3)cc2)ccn1
